Measurements published in patent publication US12521375B2, “Pharmaceutical composition for treating fatty liver disease” (Shionogi & Co., Ltd., priority 2020, dated 2026).

The chains behind the UniProt entries cited, without tags or fusion partners. Residues count along the entry.
UniProt O00763, 27-2458: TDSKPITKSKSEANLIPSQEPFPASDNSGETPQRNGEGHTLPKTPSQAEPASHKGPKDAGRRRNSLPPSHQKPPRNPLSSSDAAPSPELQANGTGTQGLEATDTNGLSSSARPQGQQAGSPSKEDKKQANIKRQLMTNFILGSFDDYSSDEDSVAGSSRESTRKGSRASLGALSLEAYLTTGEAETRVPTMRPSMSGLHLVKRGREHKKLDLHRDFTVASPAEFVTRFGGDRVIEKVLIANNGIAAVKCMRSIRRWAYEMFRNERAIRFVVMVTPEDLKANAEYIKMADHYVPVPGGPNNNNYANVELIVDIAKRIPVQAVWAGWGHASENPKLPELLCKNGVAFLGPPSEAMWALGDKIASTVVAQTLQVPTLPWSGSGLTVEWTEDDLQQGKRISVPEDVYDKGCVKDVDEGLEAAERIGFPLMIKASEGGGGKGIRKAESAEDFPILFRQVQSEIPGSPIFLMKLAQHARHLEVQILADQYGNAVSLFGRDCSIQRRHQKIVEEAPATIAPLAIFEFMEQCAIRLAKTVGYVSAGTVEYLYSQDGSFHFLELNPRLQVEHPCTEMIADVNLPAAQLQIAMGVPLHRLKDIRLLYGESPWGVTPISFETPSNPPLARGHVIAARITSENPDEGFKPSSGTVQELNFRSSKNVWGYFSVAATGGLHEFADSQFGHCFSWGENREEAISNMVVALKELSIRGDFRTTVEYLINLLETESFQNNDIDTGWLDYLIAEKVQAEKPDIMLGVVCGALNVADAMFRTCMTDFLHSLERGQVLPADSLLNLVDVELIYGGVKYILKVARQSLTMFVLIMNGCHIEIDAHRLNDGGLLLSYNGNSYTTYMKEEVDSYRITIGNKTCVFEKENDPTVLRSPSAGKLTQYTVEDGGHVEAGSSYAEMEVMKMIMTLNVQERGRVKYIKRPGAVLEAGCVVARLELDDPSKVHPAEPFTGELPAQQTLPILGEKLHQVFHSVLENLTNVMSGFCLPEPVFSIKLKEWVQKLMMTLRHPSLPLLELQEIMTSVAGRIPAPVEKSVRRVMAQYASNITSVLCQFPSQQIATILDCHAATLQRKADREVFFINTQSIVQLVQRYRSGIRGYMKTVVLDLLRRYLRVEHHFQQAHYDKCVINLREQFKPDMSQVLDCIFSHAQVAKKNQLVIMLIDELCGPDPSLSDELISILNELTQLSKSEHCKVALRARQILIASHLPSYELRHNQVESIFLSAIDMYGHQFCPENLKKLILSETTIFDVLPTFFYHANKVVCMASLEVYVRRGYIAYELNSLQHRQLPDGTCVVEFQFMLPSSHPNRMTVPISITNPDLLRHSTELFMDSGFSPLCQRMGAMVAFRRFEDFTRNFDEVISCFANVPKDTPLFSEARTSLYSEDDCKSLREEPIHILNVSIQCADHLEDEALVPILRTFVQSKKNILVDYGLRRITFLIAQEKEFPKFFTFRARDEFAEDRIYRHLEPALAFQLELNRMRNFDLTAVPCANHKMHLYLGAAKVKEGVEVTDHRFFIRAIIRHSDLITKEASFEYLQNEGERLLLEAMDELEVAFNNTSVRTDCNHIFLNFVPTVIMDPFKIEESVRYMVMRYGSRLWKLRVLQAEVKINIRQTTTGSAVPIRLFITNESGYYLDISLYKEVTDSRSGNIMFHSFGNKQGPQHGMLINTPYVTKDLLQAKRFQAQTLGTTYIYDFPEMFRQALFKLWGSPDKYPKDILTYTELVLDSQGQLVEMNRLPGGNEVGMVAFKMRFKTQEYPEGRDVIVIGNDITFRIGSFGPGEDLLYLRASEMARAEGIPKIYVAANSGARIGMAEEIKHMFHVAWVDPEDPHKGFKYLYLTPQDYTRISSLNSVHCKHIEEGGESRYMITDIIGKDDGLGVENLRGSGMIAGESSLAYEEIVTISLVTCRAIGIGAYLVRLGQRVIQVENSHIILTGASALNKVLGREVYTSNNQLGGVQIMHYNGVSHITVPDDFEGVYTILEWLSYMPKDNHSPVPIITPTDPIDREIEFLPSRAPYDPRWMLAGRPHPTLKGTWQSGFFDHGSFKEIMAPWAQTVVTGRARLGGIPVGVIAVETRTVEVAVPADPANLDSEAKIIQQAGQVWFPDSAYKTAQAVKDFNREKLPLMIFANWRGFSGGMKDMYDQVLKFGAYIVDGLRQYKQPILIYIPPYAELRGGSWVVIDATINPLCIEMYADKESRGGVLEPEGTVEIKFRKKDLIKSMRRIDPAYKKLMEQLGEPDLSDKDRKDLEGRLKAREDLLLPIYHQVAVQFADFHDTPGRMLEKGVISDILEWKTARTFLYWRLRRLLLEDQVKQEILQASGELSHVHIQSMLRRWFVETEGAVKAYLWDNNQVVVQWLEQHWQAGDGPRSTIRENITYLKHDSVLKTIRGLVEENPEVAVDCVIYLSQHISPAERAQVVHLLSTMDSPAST

Target: recombinant human ACC2 (Homo sapiens (Human), UniProt O00763)
Experiment: Measurement of inhibitory activity of human ACC2
Format: biochemical
Conditions: read-out: IC50 hACC2
Description: A cDNA encoding human ACC2 protein (27 amino acid residues to 2458 amino acid residues from the N-terminus) was cloned from a human kidney cDNA library (Clontech Laboratories, Inc.), a His-tag sequence was introduced at the 5′ end, and then inserted into pFastBac1 (Invitrogen). A recombinant baculovirus was produced in accordance with the protocol for a Bac-to-Bac baculovirus expression system (Invitrogen), and Sf-9 cells were infected therewith to express human ACC2 protein. The recovered cells were crushed, filtered through a filter, and then subjected to Ni affinity chromatography and anion exchange chromatography. Fractions containing human ACC2 protein were collected to obtain recombinant human ACC2.
The recombinant human ACC1 and the recombinant human ACC2 obtained from the above Preparation Examples were preincubated in an assay buffer (50 mM HEPES-KOH (pH 7.4), 10 mM magnesium chloride, 6 to 10 mM potassium citrate, 4 mM reduced glutathione, and 1.5 mg/ml bovine serum albumin) for 1 hour. […] Deprotonated ions of the substrate acetyl-CoA (AcCoA) and the reaction product malonyl-CoA (MalCoA) were detected, and the intensity of each signal was used to calculate a conversion rate to malonyl-CoA […], i.e., intensity of [MalCoA-H]-/(intensity of [MalCoA-H]-+intensity of [AcCoA-H]-). […]

SMILES	IC50
CC(=O)N[C@@H](C)CO[C@H]1CC[C@H](Oc2nc3c(F)cc(OC4CCC4)cc3n2C)CC1 [Compound I-1]	5.1 nM
CC(=O)N[C@@H](C)CO[C@H]1CC[C@H](Oc2nc3c(Cl)cc(OC4CC4)cc3n2C)CC1 [Compound I-3]	6.6 nM
